Substitutions are numbered along the chain they refer to.
Key:
[1] = biological target: T1, Deoxyxylulose 5-phosphate synthase (PtDXS) (Populus trichocarpa, UniProt U5G0H4, A220G); experiment: biochemical
T1 construct: gene POPTR_010G015200; C-terminally His-tagged PtDXS
T1 sequence (U5G0H4 74-721 A220G): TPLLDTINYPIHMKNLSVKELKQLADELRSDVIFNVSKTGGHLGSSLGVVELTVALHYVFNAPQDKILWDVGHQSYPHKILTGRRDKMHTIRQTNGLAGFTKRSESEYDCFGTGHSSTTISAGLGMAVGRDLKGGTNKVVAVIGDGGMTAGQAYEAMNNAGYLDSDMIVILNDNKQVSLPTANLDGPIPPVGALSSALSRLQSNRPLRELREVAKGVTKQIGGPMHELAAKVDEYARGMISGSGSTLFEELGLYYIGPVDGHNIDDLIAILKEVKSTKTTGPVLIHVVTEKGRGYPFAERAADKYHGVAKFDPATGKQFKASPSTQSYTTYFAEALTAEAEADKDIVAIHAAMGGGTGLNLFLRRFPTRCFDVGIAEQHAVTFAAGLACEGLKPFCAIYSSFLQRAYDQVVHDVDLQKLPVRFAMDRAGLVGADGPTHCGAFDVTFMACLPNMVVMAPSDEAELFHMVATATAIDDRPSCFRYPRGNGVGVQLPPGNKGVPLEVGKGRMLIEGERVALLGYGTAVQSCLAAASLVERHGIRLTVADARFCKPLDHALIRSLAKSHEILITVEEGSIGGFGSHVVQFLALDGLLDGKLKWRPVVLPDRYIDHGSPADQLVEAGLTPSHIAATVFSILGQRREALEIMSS

Sequences of proteins named here, by UniProt entry; tags and fusion partners are left off. Residues count along the entry.
UniProt U5G0H4, 74-721 A220G/A425G: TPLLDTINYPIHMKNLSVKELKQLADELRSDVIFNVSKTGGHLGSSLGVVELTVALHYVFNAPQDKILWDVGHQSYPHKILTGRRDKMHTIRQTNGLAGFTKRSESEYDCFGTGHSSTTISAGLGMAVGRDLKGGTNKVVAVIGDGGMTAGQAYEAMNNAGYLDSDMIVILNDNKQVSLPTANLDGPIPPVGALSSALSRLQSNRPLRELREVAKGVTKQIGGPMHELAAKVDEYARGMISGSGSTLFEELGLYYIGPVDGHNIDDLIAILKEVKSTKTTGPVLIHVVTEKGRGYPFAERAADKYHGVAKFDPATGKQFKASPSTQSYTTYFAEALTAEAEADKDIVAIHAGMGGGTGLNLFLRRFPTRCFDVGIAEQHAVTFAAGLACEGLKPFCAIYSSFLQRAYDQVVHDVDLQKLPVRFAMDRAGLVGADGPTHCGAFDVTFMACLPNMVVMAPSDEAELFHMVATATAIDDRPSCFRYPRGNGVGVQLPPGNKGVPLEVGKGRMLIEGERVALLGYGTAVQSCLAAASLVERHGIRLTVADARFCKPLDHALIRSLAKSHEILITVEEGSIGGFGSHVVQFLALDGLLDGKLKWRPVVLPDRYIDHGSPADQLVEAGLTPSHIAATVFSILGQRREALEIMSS
UniProt U5G0H4, 74-721 A425G: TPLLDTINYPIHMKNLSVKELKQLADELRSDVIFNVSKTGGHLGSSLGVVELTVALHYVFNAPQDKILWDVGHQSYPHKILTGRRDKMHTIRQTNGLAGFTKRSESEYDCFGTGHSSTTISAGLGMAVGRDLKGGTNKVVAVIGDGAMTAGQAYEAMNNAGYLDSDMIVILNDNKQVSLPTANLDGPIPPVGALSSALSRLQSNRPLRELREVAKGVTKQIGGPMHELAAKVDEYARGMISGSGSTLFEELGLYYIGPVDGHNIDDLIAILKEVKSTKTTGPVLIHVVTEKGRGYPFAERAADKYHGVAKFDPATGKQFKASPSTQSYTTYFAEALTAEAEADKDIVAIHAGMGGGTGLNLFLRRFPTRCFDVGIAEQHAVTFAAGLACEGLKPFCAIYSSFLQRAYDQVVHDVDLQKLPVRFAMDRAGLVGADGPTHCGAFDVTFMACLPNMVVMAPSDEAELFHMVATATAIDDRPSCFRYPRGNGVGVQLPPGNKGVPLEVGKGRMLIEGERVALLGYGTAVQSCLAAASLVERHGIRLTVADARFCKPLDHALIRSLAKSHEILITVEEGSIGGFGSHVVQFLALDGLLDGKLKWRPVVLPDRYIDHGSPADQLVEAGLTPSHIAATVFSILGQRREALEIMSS

[2] = biological target: T2, Deoxyxylulose 5-phosphate synthase (PtDXS) (Populus trichocarpa, UniProt U5G0H4, A220G/A425G); experiment: biochemical
T2 construct: gene POPTR_010G015200; C-terminally His-tagged PtDXS
T2 sequence (U5G0H4 74-721 A220G/A425G): T1 sequence (U5G0H4 74-721 A220G) with A352G

[3] = biological target: T3, Deoxyxylulose 5-phosphate synthase (PtDXS) (Populus trichocarpa, UniProt U5G0H4, A425G); type: biochemical
T3 construct: gene POPTR_010G015200; C-terminally His-tagged PtDXS
T3 sequence (U5G0H4 74-721 A425G): T1 sequence (U5G0H4 74-721 A220G) with G147A, A352G

C=C(C)CCO[P@@](=O)(O)OP(=O)(O)O [IDP]
Ki [1]: 73 ± 2 µM
Ki [2]: 268 ± 75 µM
Ki [3]: 31 ± 4 µM

— PMC4993486, “Engineering of Recombinant Poplar Deoxy-D-Xylulose-5-Phosphate Synthase (PtDXS) by Site-Directed Mutagenesis Improves Its Activity” (PLoS ONE, 2016)
